# In ChEMBL document CHEMBL4417631, “Oral peptide inhibitors of interleukin-23 receptor and their use to treat inflammatory bowel diseases” (2017):
# Columns and labels:
# Rattus norvegicus [1] = experiment: Anti-colitis activity in Sprague-Dawley rat model of DSS-induced colitis assessed as reduction in disease activity index at 30 mg/kg, ip dosed 3 times per day; assay type: functional
# Rattus norvegicus [2] = experiment: Anti-colitis activity in Sprague-Dawley rat model of DSS-induced colitis assessed as reduction in disease activity index at 20 mg/kg, po dosed 3 times per day; assay type: functional
smiles,measurement,setting,value
COc1ccc(C[C@H](NC(=O)[C@@H]2CSCC[C@H](NC(C)=O)C(=O)N[C@@H](CCC(N)=O)C(=O)N[C@@H]([C@@H](C)O)C(=O)N[C@@H](Cc3c[nH]c4ccccc34)C(=O)N[C@@H](CCC(N)=O)C(=O)N2)C(=O)N[C@@H](Cc2ccc3ccccc3c2)C(=O)N[C@@](C)(CCCCN)C(=O)N[C@@H](CCC(=O)O)C(=O)N[C@@H](CC(N)=O)C(=O)NCC(N)=O)cc1,Activity_index,Rattus norvegicus [1],0.83
same,Activity_index,Rattus norvegicus [2],0.56
